Our source for the inhibition values is PubChem BioAssay AID686940 (The Scripps Research Institute Molecular Screening Center, 2013).

Sequences of proteins named here, by UniProt entry; tags and fusion partners are left off.
UniProt P24468, whole entry: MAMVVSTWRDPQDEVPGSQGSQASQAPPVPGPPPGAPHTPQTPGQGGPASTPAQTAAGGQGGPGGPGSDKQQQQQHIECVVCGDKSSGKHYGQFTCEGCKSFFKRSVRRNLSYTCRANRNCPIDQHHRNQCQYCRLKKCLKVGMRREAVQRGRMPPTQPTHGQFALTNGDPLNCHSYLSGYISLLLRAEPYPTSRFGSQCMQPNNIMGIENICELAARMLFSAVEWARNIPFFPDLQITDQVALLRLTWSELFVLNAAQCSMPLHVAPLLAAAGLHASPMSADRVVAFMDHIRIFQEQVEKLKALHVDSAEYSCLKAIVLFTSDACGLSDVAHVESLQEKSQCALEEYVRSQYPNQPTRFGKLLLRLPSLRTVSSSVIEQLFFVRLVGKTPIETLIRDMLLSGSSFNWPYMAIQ

Only a part is listed here, and it is no random draw. The source made the active and inactive calls.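 The calls were made as follows: active = inhibition above a per-plate cutoff, mean inhibition of test wells between control levels plus 3 SD (cut at about 38% in these data); inactive = the rest.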

The experiment deals with COUP transcription factor 2 (Homo sapiens) (UniProt P24468). In words: COUP-TFII reporter suppression in human cells – cell-based, luciferase reporter, HEK293T, luminescence, primary screen (AID 686940).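 Also: cells cotransfected with COUP-TFII expression vector driving the NGFI-A reporter; 0% = median of COUP-TF2 test wells and 100% = reporter-only cells.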 The following applies: HEK293T NGFI-A luciferase reporter, at 8.6 µM, hits give high values. For orientation: Reporter assays use an easily measured gene product as a stand-in for the process of interest.
A word on the inhibition: it is the drop in the measured response relative to a control, in per cent. `CCC(=O)N(c1ccccc1)C1(COC)CCN(CCn2nnn(CC)c2=O)CC1`: the inhibition is inactive: 1.91%. Under `CCC(=O)N(c1ccccc1)C1(COC)CCN(CCc2cccs2)CC1` stands inactive: -15.9%.
